Our source for the IC50 values is patent US9394282B2, “Pyrazole carboxamides as Janus kinase inhibitors” (Merck Sharp & Dohme Corp., priority 2011, dated 2016).

By UniProt entry, the sequences of proteins in these tests, tags left out. Residues count along the entry.
UniProt O60674, 849-1124: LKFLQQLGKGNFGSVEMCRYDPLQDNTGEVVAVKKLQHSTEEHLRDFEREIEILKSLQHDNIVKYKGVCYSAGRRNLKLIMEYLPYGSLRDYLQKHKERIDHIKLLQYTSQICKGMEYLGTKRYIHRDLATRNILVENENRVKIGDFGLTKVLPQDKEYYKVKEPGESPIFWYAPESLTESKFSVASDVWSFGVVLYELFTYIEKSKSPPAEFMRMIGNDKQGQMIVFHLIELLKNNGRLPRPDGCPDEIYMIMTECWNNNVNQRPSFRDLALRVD
UniProt P23458, 875-1153: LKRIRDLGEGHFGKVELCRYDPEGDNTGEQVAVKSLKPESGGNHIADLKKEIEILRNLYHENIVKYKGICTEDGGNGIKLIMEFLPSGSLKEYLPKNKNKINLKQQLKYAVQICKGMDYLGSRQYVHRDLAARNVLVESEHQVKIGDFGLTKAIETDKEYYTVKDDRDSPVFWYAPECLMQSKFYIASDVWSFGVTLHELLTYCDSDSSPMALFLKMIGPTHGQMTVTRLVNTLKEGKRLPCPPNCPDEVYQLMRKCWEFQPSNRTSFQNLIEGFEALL

Molecules are shown by their SMILES. Where only a bound is given, the exact number is not on record here.

The first test deals with JAK2 (Homo sapiens (Human), UniProt O60674). Kind of test: Jak biochemical HTRF assay, JAK2. The following applies: recombinant purified GST-tagged catalytic domain; HTRF format; [ATP] 8.5 μM. An excerpt:
(§1) Jak Biochemical HTRF Assay Protocol
(§2) Subsequent reagent additions employed an Agilent Bravo.
`N#CCC1(COC(=O)N2CC[C@H](n3cc(C(N)=O)c(Nc4ccc(F)cc4)n3)[C@H](C#N)C2)CC1` (racemic) [Example 5-64, [1-(cyanomethyl)cyclopropyl]methyl (3R,4S and 3S,4R)-4-{4-carbamoyl-3-[(4-fluorophenyl)amino]-1H-pyrazol-1-yl}-3-cyanopiperidine-1-carboxylate]: the IC50 was over 1500 nM. On the same count and under the same terms, the result for `N#C[C@@H]1CS(=O)(=O)CCC1n1cc(C(N)=O)c(Nc2ccc(C(F)(F)F)cc2)n1` (mixture of isomers) [Example 8-3, 1-((3R,4R and 3S,4S)-3-cyano-1,1-dioxidotetrahydro-2H-thiopyran-4-yl)-3-((4-(trifluoromethyl)phenyl)amino)-1H-pyrazole-4-carboxamide] reads 146 nM; that for `N#C[C@@H]1CCN(C(=O)OCCC2CC2)CC1n1cc(C(N)=O)c(Nc2ccc(F)cc2)n1` (mixture of isomers) [Example 5-91, 2-cyclopropylethyl (3S,4R and 3R,4S)-3-{4-carbamoyl-3-[(4-fluorophenyl)amino]-1H-pyrazol-1-yl}-4-cyanopiperidine-1-carboxylate], 76 nM. The same measure, in the same setting: to `N#C[C@@H]1CN(C(=O)OCCC2CC2)CC[C@@H]1n1cc(C(N)=O)c(Nc2ccc(F)cc2)n1` (racemic) [Example 5-41, 2-cyclopropylethyl (3R,4S and 3S,4R)-4-{4-carbamoyl-3-[(4-fluorophenyl)amino]-1H-pyrazol-1-yl}-3-cyanopiperidine-1-carboxylate] belongs over 1500 nM; to `N#C[C@@H]1CN(C(=O)OC2CCOCC2)CC[C@@H]1n1cc(C(N)=O)c(Nc2ccc(F)cc2)n1` (racemic) [Example 5-60, tetrahydro-2H-pyran-4-yl (3R,4S and 3S,4R)-4-{4-carbamoyl-3-[(4-fluorophenyl)amino]-1H-pyrazol-1-yl}-3-cyanopiperidine-1-carboxylate], over 1500 nM. `N#C[C@@H]1CCN(C(=O)OC2CCOCC2)CC1n1cc(C(N)=O)c(Nc2ccc(F)cc2)n1` (mixture of isomers) [Example 5-85, tetrahydro-2H-pyran-4-yl (3S,4R and 3R,4S)-3-{4-carbamoyl-3-[(4-fluorophenyl)amino]-1H-pyrazol-1-yl}-4-cyanopiperidine-1-carboxylate]: the IC50 came out at 87 nM. As to `N#C[C@@H]1CCN(C(=O)OCCN2CCOCC2)CC1n1cc(C(N)=O)c(Nc2ccc(F)cc2)n1` (mixture of isomers) [Example 5-87, 2-morpholin-4-ylethyl (3S,4R and 3R,4S)-3-{4-carbamoyl-3-[(4-fluorophenyl)amino]-1H-pyrazol-1-yl}-4-cyanopiperidine-1-carboxylate], the IC50 worked out at 85 nM.

As for `CC(C)(C)CCOC(=O)N1CC[C@@H](C#N)C(n2cc(C(N)=O)c(Nc3ccc(F)cc3)n2)C1` (mixture of isomers) [Example 4, 3,3-Dimethylbutyl(3S,4R and 3R,4S)-3-{4-carbamoyl-3-[(4-fluorophenyl)amino]-1H-pyrazol-1-yl}-4-cyanopiperidine-1-carboxylate], the concentration for half-maximal inhibition (IC50) turned out to be 117 nM. For `N#C[C@@H]1CS(=O)(=O)CCC1n1cc(C(N)=O)c(Nc2ccc(C(F)(F)F)cc2)n1` (single isomer, unassigned) [Example 13-3, 1-((3R,4S or 3S,4R)-3-cyano-1,1-dioxidotetrahydro-2H-thiopyrdn-4-yl)-3-((4-(trifluoromethyl)phenyl)amino)-1H-pyrazole-4-carboxamide], the IC50 came to 769 nM. As to `N#C[C@@H]1CS(=O)(=O)CCC1n1cc(C(N)=O)c(Nc2ccc(C(F)(F)F)cc2)n1` (single isomer, unassigned) [Example 13-4, 1-((3R,4S or 3S,4R)-3-cyano-1,1-dioxidotetrahydro-2H-thiopyran-4-yl)-3-((4-(trifluoromethyl)phenyl)amino)-1H-pyrazole-4-carboxamide], the IC50 worked out at 33 nM. For `CC1(COC(=O)N2CC[C@H](n3cc(C(N)=O)c(Nc4ccc(F)cc4)n3)[C@H](C#N)C2)CC1` (racemic) [Example 5-62, (1-methylcyclopropyl)methyl (3R,4S and 3S,4R)-4-{4-carbamoyl-3-[(4-fluorophenyl)amino]-1H-pyrazol-1-yl}-3-cyanopiperidine-1-carboxylate], the IC50 was over 1500 nM. In the case of `COCCCOC(=O)N1CC[C@H](n2cc(C(N)=O)c(Nc3ccc(F)cc3)n2)[C@H](C#N)C1` (racemic) [Example 5-63, 3-methoxypropyl (3R,4S and 3S,4R)-4-{4-carbamoyl-3-[(4-fluorophenyl)amino]-1H-pyrazol-1-yl}-3-cyanopiperidine-1-carboxylate], the 50% inhibitory concentration (IC50) was over 1500 nM. Take `N#C[C@@H]1CN(C(=O)OC2CCOC2)CC[C@@H]1n1cc(C(N)=O)c(Nc2ccc(F)cc2)n1` (mixture of isomers) [Example 5-51, tetrahydrofuran-3-yl (3R,4S and 3S,4R)-4-{4-carbamoyl-3-[(4-fluorophenyl)amino]-1H-pyrazol-1-yl}-3-cyanopiperidine-1-carboxylate]: the IC50 was over 1500 nM. Consider `N#C[C@@H]1CS(=O)(=O)CCC1n1cc(C(N)=O)c(Nc2ccc(C(F)(F)F)cc2)n1` (mixture of isomers) [Example 8-4, 1-((3R,4S and 3S,4R)-3-cyano-1,1-dioxidotetrahydro-2H-thiopyran-4-yl)-3-((4-(trifluoromethyl)phenyl)amino)-1H-pyrazole-4-carboxamide], for which the IC50 was determined as 371 nM. Consider `N#C[C@H]1COCC[C@@H]1n1cc(C(N)=O)c(Nc2ccnc(F)c2)n1` (single isomer, unassigned) [Example 11-1, 1-[(3S,4S or 3R,4R)-3-Cyanotetrahydro-2H-pyran-4-yl]-3-[(2-fluoropyridin-4-yl)amino]-1H-pyrazole-4-carboxamide], for which the IC50 turned out to be 323 nM.

A further test concerns the target JAK1 (Homo sapiens (Human), UniProt P23458). Kind of test: Jak biochemical HTRF assay, JAK1. Conditions: recombinant purified GST-tagged catalytic domain; HTRF format; [ATP] 31.8 μM.
Text: as §1, §2
Regarding `CC(C)(C)OC(=O)N1CCC(n2cc(C(N)=O)c(Nc3ccc(F)cc3)n2)[C@@H](C#N)C1` (mixture of isomers) [Example 2-3, (3S,4S and 3R,4R)-tert-butyl 4-(4-carbamoyl-3-((4-fluorophenyl)amino)-1H-pyrazol-1-yl)-3-cyanopiperidine-1-carboxylate], the IC50 was 27 nM.

Consider `N#C[C@@H]1CCN(C(=O)OCCF)CC1n1cc(C(N)=O)c(Nc2ccc(F)cc2)n1` (mixture of isomers) [Example 5-79, 2-fluoroethyl (3S,4R and 3R,4S)-3-{4-carbamoyl-3-[(4-fluorophenyl)amino]-1H-pyrazol-1-yl}-4-cyanopiperidine-1-carboxylate], for which the IC50 was determined as 6 nM. As to `N#C[C@@H]1CS(=O)(=O)CCC1n1cc(C(N)=O)c(Nc2ccc(C(F)(F)F)cc2)n1` (mixture of isomers) [Example 8-3, 1-((3R,4R and 3S,4S)-3-cyano-1,1-dioxidotetrahydro-2H-thiopyran-4-yl)-3-((4-(trifluoromethyl)phenyl)amino)-1H-pyrazole-4-carboxamide], the IC50 was 3 nM.

For `N#C[C@@H]1CN(C(=O)OC2CCCCC2)CC[C@H]1n1cc(C(N)=O)c(Nc2ccc(F)cc2)n1` (mixture of isomers) [Example 5-17, cyclohexyl (3R,4R and 3S,4S)-4-{4-carbamoyl-3-[(4-fluorophenyl)amino]-1H-pyrazol-1-yl}-3-cyanopiperidine-1-carboxylate], the concentration for half-maximal inhibition (IC50) stood at 97 nM. As to `N#C[C@H]1CS(=O)(=O)CC1n1cc(C(N)=O)c(Nc2ccc(F)cc2)n1` (mixture of isomers) [Example 8-5, 1-((3S,4S and 3R,4R)-4-cyano-1,1-dioxidotetrahydrothiophen-3-yl)-3-((4-fluorophenyl)amino)-1H-pyrazole-4-carboxamide], the IC50 was determined as 1 nM. Still for that read-out and setting: the result for `N#C[C@H]1CCOC[C@@H]1n1cc(C(N)=O)c(Nc2ccnc(F)c2)n1` (single isomer, unassigned) [Example 9-2, 1-((3R,4S or 3S,4R)-4-cyano-tetrahydro-2H-pyran-3-yl)-3-(2-fluoropyridin-4-ylamino)-1H-pyrazole-4-carboxamide] reads 18 nM; that for `CC1(COC(=O)N2CC[C@@H](C#N)C(n3cc(C(N)=O)c(Nc4ccc(F)cc4)n3)C2)COC1` (mixture of isomers) [Example 5-90, (3-methyloxetan-3-yl)methyl (3S,4R and 3R,4S)-3-{4-carbamoyl-3-[(4-fluorophenyl)amino]-1H-pyrazol-1-yl}-4-cyanopiperidine-1-carboxylate], 4 nM. Regarding `COCCOC(=O)N1CC[C@@H](C#N)C(n2cc(C(N)=O)c(Nc3ccc(F)cc3)n2)C1` (mixture of isomers) [Example 5-83, 2-methoxyethyl (3S,4R and 3R,4S)-3-{4-carbamoyl-3-[(4-fluorophenyl)amino]-1H-pyrazol-1-yl}-4-cyanopiperidine-1-carboxylate], the IC50 worked out at 8 nM. Take `CC(C)(C)OC(=O)N1CCC(n2cc(C(N)=O)c(Nc3ccc(F)cc3)n2)[C@H](C#N)C1` (mixture of isomers) [Example 2-2, (3R,4S and 3S,4R)-tert-butyl 4-(4-carbamoyl-3-((4-fluorophenyl)amino)-1H-pyrazol-1-yl)-3-cyanopiperidine-1-carboxylate]: the IC50 was determined as 154 nM. Regarding `N#C[C@@H]1CS(=O)(=O)CCC1n1cc(C(N)=O)c(Nc2ccc(C(F)(F)F)cc2)n1` (single isomer, unassigned) [Example 13-3, 1-((3R,4S or 3S,4R)-3-cyano-1,1-dioxidotetrahydro-2H-thiopyrdn-4-yl)-3-((4-(trifluoromethyl)phenyl)amino)-1H-pyrazole-4-carboxamide], the IC50 was determined as 71 nM. In the case of `N#C[C@@H]1CS(=O)(=O)CCC1n1cc(C(N)=O)c(Nc2ccc(C(F)(F)F)cc2)n1` (single isomer, unassigned) [Example 13-4, 1-((3R,4S or 3S,4R)-3-cyano-1,1-dioxidotetrahydro-2H-thiopyran-4-yl)-3-((4-(trifluoromethyl)phenyl)amino)-1H-pyrazole-4-carboxamide], the IC50 is 2 nM.

In the case of `N#C[C@@H]1CS(=O)(=O)CC1n1cc(C(N)=O)c(Nc2ccc(S(=O)(=O)C(F)(F)F)cc2)n1` (mixture of isomers) [Example 8-7, 1-((3S,4R and 3R,4S)-4-cyano-1,1-dioxidotetrahydrothiophen-3-yl)-3-((4-((trifluoromethyl)sulfonyl)phenyl)amino)-1H-pyrazole-4-carboxamide], the IC50 is 0.5 nM.

For the molecule `N#C[C@@H]1CS(=O)(=O)C[C@H]1n1cc(C(N)=O)c(Nc2ccc(F)cc2)n1` (single isomer, unassigned) [Example 12-1, 1-((3S,4R or 3R,4S)-4-Cyano-1,1-dioxidotetrahydrothiophen-3-yl)-3-((4-fluorophenyl)amino)-1H-pyrazole-4-carboxamide], the IC50 is 179 nM.

With `CC(C)(C#N)COC(=O)N1CC[C@@H](C#N)C(n2cc(C(N)=O)c(Nc3ccc(F)cc3)n2)C1` (mixture of isomers) [Example 5-69, 2-Cyano-2-methylpropyl (3S,4R and 3R,4S)-3-{4-carbamoyl-3-[(4-fluorophenyl)amino]-1H-pyrazol-1-yl}-4-cyanopiperidine-1-carboxylate], the IC50 came to 1 nM. Take `N#C[C@@H]1CS(=O)(=O)CC1n1cc(C(N)=O)c(Nc2ccc(F)cc2)n1` (mixture of isomers) [Example 8-6, 1-((3S,4R and 3R,4S)-4-cyano-1,1-dioxidotetrahydrothiophen-3-yl)-3-((4-fluorophenyl)amino)-1H-pyrazole-4-carboxamide]: the IC50 came to 0.8 nM.

`N#C[C@@H]1CS(=O)(=O)CCC1n1cc(C(N)=O)c(Nc2ccc(C(F)(F)F)cc2)n1` (mixture of isomers) [Example 8-4, 1-((3R,4S and 3S,4R)-3-cyano-1,1-dioxidotetrahydro-2H-thiopyran-4-yl)-3-((4-(trifluoromethyl)phenyl)amino)-1H-pyrazole-4-carboxamide]: the 50% inhibitory concentration (IC50) worked out at 30 nM.
